Test results taken from patent publication US20250195530A1, “POLQ INHIBITORS” (ASTRAZENECA AB, priority 2022, published 2025).

Sequences of proteins named here, by UniProt entry; tags and fusion partners are left off. Residues count along the entry.
UniProt O75417, 1780-2590: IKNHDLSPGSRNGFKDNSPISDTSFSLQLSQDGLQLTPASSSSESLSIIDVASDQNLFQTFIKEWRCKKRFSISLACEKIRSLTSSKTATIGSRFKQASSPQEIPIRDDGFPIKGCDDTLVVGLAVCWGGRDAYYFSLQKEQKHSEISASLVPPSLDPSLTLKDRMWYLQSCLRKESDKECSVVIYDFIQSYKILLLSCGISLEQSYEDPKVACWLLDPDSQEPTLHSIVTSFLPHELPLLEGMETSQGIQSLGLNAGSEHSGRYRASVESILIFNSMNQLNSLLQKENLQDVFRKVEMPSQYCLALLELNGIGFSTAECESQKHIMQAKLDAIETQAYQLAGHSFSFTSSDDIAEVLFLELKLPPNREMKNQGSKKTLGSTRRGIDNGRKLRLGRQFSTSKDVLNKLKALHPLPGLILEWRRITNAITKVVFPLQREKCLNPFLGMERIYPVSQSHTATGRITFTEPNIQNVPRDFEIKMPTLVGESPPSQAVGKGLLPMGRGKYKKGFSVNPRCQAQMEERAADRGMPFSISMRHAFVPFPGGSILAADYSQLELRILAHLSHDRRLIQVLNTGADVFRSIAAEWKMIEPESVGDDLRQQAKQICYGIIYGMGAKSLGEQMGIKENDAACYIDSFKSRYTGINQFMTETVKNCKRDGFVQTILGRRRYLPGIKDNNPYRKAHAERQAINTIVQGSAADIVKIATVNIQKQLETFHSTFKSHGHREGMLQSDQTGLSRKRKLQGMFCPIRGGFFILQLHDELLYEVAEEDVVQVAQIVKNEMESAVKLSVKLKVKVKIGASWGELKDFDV

Biological target: isolated polymerase domain (I1780-V2590) of DNA polymerase theta (Polθ) (Homo sapiens (Human), UniProt O75417)
Assay: biochemical

Compound	IC50 [nM]
CCC(C)c1ccc(-c2nc3c(OC4(C)CC4)ncnc3n2Cc2cc(C)ccn2)c(Cl)c1 (racemic) [Example T232, 8-(4-(sec-butyl)-2-chlorophenyl)-6-(1-methylcyclopropoxy)-9-((4-methylpyridin-2-yl)methyl)-9H-purine]	12.6
CC(CCOc1ccc(-c2nc3c(OC4(C)CC4)ncnc3n2Cc2cc(Cl)ccc2Cl)c(Cl)c1)C(=O)O (racemic) [Example T276, 4-(3-chloro-4-(9-(2,5-dichlorobenzyl)-6-(1-methylcyclopropoxy)-9H-purin-8-yl)phenoxy)-2-methylbutanoic acid]	5.01
CC1(Oc2ncnc3c2nc(-c2cccc(OCC(C)(C)C(=O)O)c2Cl)n3Cc2cccc(Cl)c2)CC1 [Example T298, 3-(2-chloro-3-(9-(3-chlorobenzyl)-6-(1-methylcyclopropoxy)-9H-purin-8-yl)phenoxy)-2,2-dimethylpropanoic acid]	3.16
CNC(=O)C1CN(c2ccc(-c3nc4c(OC5(C)CC5)ncnc4n3Cc3cc(C)ccn3)c(Cl)c2)C1 [Example T341, 1-(3-chloro-4-(6-(1-methylcyclopropoxy)-9-((4-methylpyridin-2-yl)methyl)-9H-purin-8-yl)phenyl)-N-methylazetidine-3-carboxamide]	6.31
Cc1ccnc(Cn2c(-c3ccc(OCC(=O)N4C[C@@H](O)[C@H](F)C4)cc3Cl)nc3c(OC4(C)CC4)ncnc32)c1 [Example T423, 2-(3-chloro-4-(6-(1-methylcyclopropoxy)-9-((4-methylpyridin-2-yl)methyl)-9H-purin-8-yl)phenoxy)-1-((3R,4R)-3-fluoro-4-hydroxypyrrolidin-1-yl)ethan-1-one]	6.31
Cc1ccnc(Cn2c(-c3ccc(OC[C@H]4CCO4)cc3Cl)nc3c(OC4(C)CC4)ncnc32)c1 [Example T194, (R)-8-(2-chloro-4-(oxetan-2-ylmethoxy)phenyl)-6-(1-methylcyclopropoxy)-9-((4-methylpyridin-2-yl)methyl)-9H-purine]	7.94
Cc1c(Cl)ccnc1Cn1c(-c2ccc(OCCN3CCNCC3)cc2Cl)nc2c(OC3(C)CC3)ncnc21 [Example T525, 9-((4-chloro-3-methylpyridin-2-yl)methyl)-8-(2-chloro-4-(2-(piperazin-1-yl)ethoxy)phenyl)-6-(1-methylcyclopropoxy)-9H-purine]	12.6
CC1(Oc2ncnc3c2nc(-c2ccc(CCCCC(=O)O)cc2Cl)n3Cc2cccc(Cl)c2)CC1 [Example T289, 5-(3-chloro-4-(9-(3-chlorobenzyl)-6-(1-methylcyclopropoxy)-9H-purin-8-yl)phenyl)pentanoic acid]	5.01
Cc1ccnc(Cn2c(-c3ccc(C(=O)N(C)C)cc3Cl)nc3c(OC4(C)CC4)ncnc32)c1 [Example T112, 3-chloro-N,N-dimethyl-4-(6-(1-methylcyclopropoxy)-9-((4-methylpyridin-2-yl)methyl)-9H-purin-8-yl)benzamide]	10
CC1(Oc2ncnc3c2nc(-c2ccc(CC(N)=O)cc2Cl)n3CCc2nccs2)CC1 [Example T7, 2-(3-chloro-4-(6-(1-methylcyclopropoxy)-9-(2-(thiazol-2-yl)ethyl)-9H-purin-8-yl)phenyl)acetamide]	631
Cc1ccnc(Cn2c(-c3ccc(OCCNS(C)(=O)=O)cc3Cl)nc3c(OC4(C)CC4)ncnc32)c1 [Example T144, N-(2-(3-chloro-4-(6-(1-methylcyclopropoxy)-9-((4-methylpyridin-2-yl)methyl)-9H-purin-8-yl)phenoxy)ethyl)methanesulfonamide]	6.31
CC(CCOc1ccc(-c2nc3c(OC4(C)CC4)ncnc3n2Cc2c(F)cccc2C#N)c(Cl)c1)C(=O)O (racemic) [Example U13, 4-(3-chloro-4-(9-(2-cyano-6-fluorobenzyl)-6-(1-methylcyclopropoxy)-9H-purin-8-yl)phenoxy)-2-methylbutanoic acid]	20
CC(CCOc1ccc(-c2nc3c(OC4(C)CC4)ncnc3n2Cc2cccc(C(F)F)c2)c(Cl)c1)C(=O)O (single isomer, unassigned) [Example T413, 4-(3-chloro-4-(9-(3-(difluoromethyl)benzyl)-6-(1-methylcyclopropoxy)-9H-purin-8-yl)phenoxy)-2-methylbutanoic acid]	7.94
C[C@@H](CCOc1ccc(-c2nc3c(OC4(C)CC4)ncnc3n2Cc2cc(Cl)ccc2F)c(Cl)c1)C(=O)O [Example U11, (S)-4-(3-chloro-4-(9-(5-chloro-2-fluorobenzyl)-6-(1-methylcyclopropoxy)-9H-purin-8-yl)phenoxy)-2-methylbutanoic acid]	5.01
CC1(Oc2ncnc3c2nc(-c2cccc(OCCC(=O)O)c2Cl)n3Cc2cc(Cl)ccc2F)CC1 [Example U32, 3-(2-chloro-3-(9-(5-chloro-2-fluorobenzyl)-6-(1-methylcyclopropoxy)-9H-purin-8-yl)phenoxy)propanoic acid]	7.94
CC1(Oc2ncnc3c2nc(-c2ccc(C(=O)O)cc2Cl)n3Cc2cccc(Cl)c2)CC1 [Example T11, 3-chloro-4-(9-(3-chlorobenzyl)-6-(1-methylcyclopropoxy)-9H-purin-8-yl)benzoic acid]	7.94
CNC(=O)COc1ccc(-c2nc3c(OC4(C)CC4)ncnc3n2CCc2ccccc2)c(Cl)c1 [Example T195, 2-(3-chloro-4-(6-(1-methylcyclopropoxy)-9-phenethyl-9H-purin-8-yl)phenoxy)-N-methylacetamide]	6.31
Cc1ncccc1Cn1c(-c2ccc(CC(N)=O)cc2Cl)nc2c(OC3(C)CC3)ncnc21 [Example T60, 2-(3-chloro-4-(6-(1-methylcyclopropoxy)-9-((2-methylpyridin-3-yl)methyl)-9H-purin-8-yl)phenyl)acetamide]	398
Cc1ccnc(Cn2c(-c3ccc(C(=O)N4CC5CC(C4)N5)cc3Cl)nc3c(OC4(C)CC4)ncnc32)c1 [Example T427, (3,6-diazabicyclo[3.1.1]heptan-3-yl)(3-chloro-4-(6-(1-methylcyclopropoxy)-9-((4-methylpyridin-2-yl)methyl)-9H-purin-8-yl)phenyl)methanone]	25.1
Cc1ccnc(Cn2c(-c3ccc(OCC(=O)N4CCCC4)cc3Cl)nc3c(OC4(C)CC4)ncnc32)c1 [Example T467, 2-(3-chloro-4-(6-(1-methylcyclopropoxy)-9-((4-methylpyridin-2-yl)methyl)-9H-purin-8-yl)phenoxy)-1-(pyrrolidin-1-yl)ethan-1-one]	10

More lines, in order of falling IC50, values ahead:

IC50 [nM]	Compound
39.8	FC(F)(F)C1(Oc2ncnc3c2nc(-c2ccc(OCCN4CCNCC4)cc2Cl)n3Cc2ccccc2)COC1 [Example T424, 9-benzyl-8-(2-chloro-4-(2-(piperazin-1-yl)ethoxy)phenyl)-6-((3-(trifluoromethyl)oxetan-3-yl)oxy)-9H-purine]
20	Cc1ccnc(Cn2c(-c3ccc(C(=O)NC(C)C)cc3Cl)nc3c(OC4(C)CC4)ncnc32)c1 [Example T211, 3-chloro-N-isopropyl-4-(6-(1-methylcyclopropoxy)-9-((4-methylpyridin-2-yl)methyl)-9H-purin-8-yl)benzamide]
7.94	Cc1ccnc(Cn2c(-c3ccc(OCC(=O)N(C)CCO)cc3Cl)nc3c(OC4(C)CC4)ncnc32)c1 [Example T374, 2-(3-chloro-4-(6-(1-methylcyclopropoxy)-9-((4-methylpyridin-2-yl)methyl)-9H-purin-8-yl)phenoxy)-N-(2-hydroxyethyl)-N-methylacetamide]
7.94	CC(=O)N1CC[C@@H](Oc2ccc(-c3nc4c(OC5(C)CC5)ncnc4n3Cc3cc(C)ccn3)c(Cl)c2)C1 [Example T472, (R)-1-(3-(3-chloro-4-(6-(1-methylcyclopropoxy)-9-((4-methylpyridin-2-yl)methyl)-9H-purin-8-yl)phenoxy)pyrrolidin-1-yl)ethan-1-one]
7.94	Cc1cnc(Cn2c(-c3ccc(OCCN(C)C)cc3Cl)nc3c(OC4(C)CC4)ncnc32)s1 [Example T72, 2-(3-chloro-4-(6-(1-methylcyclopropoxy)-9-((5-methylthiazol-2-yl)methyl)-9H-purin-8-yl)phenoxy)-N,N-dimethylethan-1-amine]
7.94	Cc1cnc(Cn2c(-c3ccc(OCCN4CC(O)C4)cc3Cl)nc3c(OC4(C)CC4)ncnc32)s1 [Example T141, 1-(2-(3-chloro-4-(6-(1-methylcyclopropoxy)-9-((5-methylthiazol-2-yl)methyl)-9H-purin-8-yl)phenoxy)ethyl)azetidin-3-ol]
6.31	Cc1ccnc(Cn2c(-c3ccc(O[C@@H]4CC[C@@H](O)C4)cc3Cl)nc3c(OC4(C)CC4)ncnc32)c1 (relative stereo) [Example T330, rel-(1R,3R)-3-(3-chloro-4-(6-(1-methylcyclopropoxy)-9-((4-methylpyridin-2-yl)methyl)-9H-purin-8-yl)phenoxy)cyclopentan-1-ol]
5.01	CC1(Oc2ncnc3c2nc(-c2ccc(OCCO)cc2Cl)n3Cc2cc(C(F)(F)F)ccn2)CC1 [Example T44, 2-(3-chloro-4-(6-(1-methylcyclopropoxy)-9-((4-(trifluoromethyl)pyridin-2-yl)methyl)-9H-purin-8-yl)phenoxy)ethan-1-ol]
5.01	Cc1cnc(Cn2c(-c3cccc(OCCCN(C)C)c3Cl)nc3c(OC4(C)CC4)ncnc32)s1 [Example T149, 3-(2-chloro-3-(6-(1-methylcyclopropoxy)-9-((5-methylthiazol-2-yl)methyl)-9H-purin-8-yl)phenoxy)-N,N-dimethylpropan-1-amine]
3.98	COc1ccc(C(F)(F)F)cc1Cn1c(-c2ccc(OCC[C@@H](C)C(=O)O)cc2Cl)nc2c(OC3(C)CC3)ncnc21 [Example U79, (R)-4-(3-chloro-4-(9-(2-methoxy-5-(trifluoromethyl)benzyl)-6-(1-methylcyclopropoxy)-9H-purin-8-yl)phenoxy)-2-methylbutanoic acid]
3.16	Cn1nc(COc2ccc(-c3nc4c(OC5(C)CC5)ncnc4n3Cc3cccc(Cl)c3)c(Cl)c2)cc1C(=O)O [Example T394, 3-((3-chloro-4-(9-(3-chlorobenzyl)-6-(1-methylcyclopropoxy)-9H-purin-8-yl)phenoxy)methyl)-1-methyl-1H-pyrazole-5-carboxylic acid]
